Results reported in BindingDB's records for 15357993.

Target: Carbonic anhydrase (Methanothermobacter thermautotrophicus (strain ATCC 29096 / DSM 1053 / JCM 10044 / NBRC 100330 / Delta H), UniProt Q50565)

[N-]=[N+]=N
Ki: 55.7 mM
